For the assay, the target named is T1, Aminopeptidase N (Sus scrofa) (UniProt P15145).
T1 sequence (whole entry): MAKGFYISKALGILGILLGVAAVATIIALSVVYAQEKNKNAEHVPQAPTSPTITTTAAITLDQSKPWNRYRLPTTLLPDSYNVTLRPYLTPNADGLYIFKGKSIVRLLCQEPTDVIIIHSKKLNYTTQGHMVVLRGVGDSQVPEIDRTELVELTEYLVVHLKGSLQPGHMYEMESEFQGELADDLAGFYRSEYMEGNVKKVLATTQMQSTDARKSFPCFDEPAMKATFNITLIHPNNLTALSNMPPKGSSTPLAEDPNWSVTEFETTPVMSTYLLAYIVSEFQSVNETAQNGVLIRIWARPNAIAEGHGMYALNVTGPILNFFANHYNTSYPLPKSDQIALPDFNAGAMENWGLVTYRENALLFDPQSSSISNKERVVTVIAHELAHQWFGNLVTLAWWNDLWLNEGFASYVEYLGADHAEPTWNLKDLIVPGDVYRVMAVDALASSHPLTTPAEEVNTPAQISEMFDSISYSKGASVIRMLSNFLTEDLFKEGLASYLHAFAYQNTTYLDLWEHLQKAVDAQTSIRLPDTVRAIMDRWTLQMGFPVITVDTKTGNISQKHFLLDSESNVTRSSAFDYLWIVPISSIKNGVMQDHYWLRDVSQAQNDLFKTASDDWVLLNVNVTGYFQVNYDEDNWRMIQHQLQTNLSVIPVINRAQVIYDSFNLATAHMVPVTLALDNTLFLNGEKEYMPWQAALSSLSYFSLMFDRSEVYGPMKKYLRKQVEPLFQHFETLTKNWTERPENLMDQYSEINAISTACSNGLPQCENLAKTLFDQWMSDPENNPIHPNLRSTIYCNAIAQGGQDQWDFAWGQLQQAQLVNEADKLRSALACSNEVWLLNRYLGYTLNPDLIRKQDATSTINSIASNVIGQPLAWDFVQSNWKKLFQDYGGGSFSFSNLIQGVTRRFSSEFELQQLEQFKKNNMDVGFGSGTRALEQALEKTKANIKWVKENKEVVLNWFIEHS
Kind of assay: Potency index, ratio of bestatin IC50 to compound IC50 for APN in porcine kidney microsomes.

As for `CC(C)C[C@H](NC(=O)NCc1cn(Cc2ccccc2OCc2ccccc2)nn1)C(=O)NO`, the Ratio IC50 was over 100.

Source of the values: ChEMBL document CHEMBL4118239, “Novel leucine ureido derivatives as aminopeptidase N inhibitors using click chemistry” (Bioorg Med Chem, 2018).
